PubChem BioAssay (NCI)
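A five-concentration, 48-hour dose response in 96-well plates underlies each endpoint, interpolated linearly between surrounding concentrations. GI50 marks 50% less growth. At the TGI there is no net growth.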

Columns and labels:
Assay in all cases: NCI anticancer screen, dose series, 48 h
XF 498 CNS = tested on: XF 498 CNS
HCT-15 colon = tested on: HCT-15 colon
DMS 273 small cell lung = tested on: DMS 273 small cell lung
EKVX NSCLC = tested on: EKVX NSCLC
IGROV1 ovarian = tested on: IGROV1 ovarian
A549 NSCLC = tested on: A549 NSCLC
UACC-62 melanoma = tested on: UACC-62 melanoma
COLO 205 colon = tested on: COLO 205 colon
HOP-92 NSCLC = tested on: HOP-92 NSCLC
LXFL 529 NSCLC = tested on: LXFL 529 NSCLC
HL-60(TB) leukemia = tested on: HL-60(TB) leukemia
SF-295 CNS = tested on: SF-295 CNS
UO-31 renal = tested on: UO-31 renal
RXF-631 renal = tested on: RXF-631 renal
SNB-78 CNS = tested on: SNB-78 CNS
A498 renal = tested on: A498 renal
M19-MEL melanoma = tested on: M19-MEL melanoma
SNB-75 CNS = tested on: SNB-75 CNS
RXF 393 renal = tested on: RXF 393 renal
OVCAR-8 ovarian = tested on: OVCAR-8 ovarian
KM20L2 colon = tested on: KM20L2 colon
SF-268 CNS = tested on: SF-268 CNS
SK-MEL-2 melanoma = tested on: SK-MEL-2 melanoma
HT29 colon = tested on: HT29 colon
SW-620 colon = tested on: SW-620 colon
CCRF-CEM leukemia = tested on: CCRF-CEM leukemia
DMS 114 small cell lung = tested on: DMS 114 small cell lung
MOLT-4 leukemia = tested on: MOLT-4 leukemia
SN12C renal = tested on: SN12C renal
NCI-H226 lung = tested on: NCI-H226 lung
LOX IMVI melanoma = tested on: LOX IMVI melanoma
NCI-H322M lung = tested on: NCI-H322M lung
SF-539 CNS = tested on: SF-539 CNS
RPMI-8226 leukemia = tested on: RPMI-8226 leukemia
MALME-3M melanoma = tested on: MALME-3M melanoma
NCI-H460 lung = tested on: NCI-H460 lung
DLD-1 colon = tested on: DLD-1 colon
SNB-19 CNS = tested on: SNB-19 CNS
TK-10 renal = tested on: TK-10 renal
HOP-62 NSCLC = tested on: HOP-62 NSCLC
K-562 leukemia = tested on: K-562 leukemia
786-0 renal = tested on: 786-0 renal
SK-OV-3 ovarian = tested on: SK-OV-3 ovarian
NCI-H522 lung = tested on: NCI-H522 lung
SK-MEL-5 melanoma = tested on: SK-MEL-5 melanoma
OVCAR-3 ovarian = tested on: OVCAR-3 ovarian
SK-MEL-28 melanoma = tested on: SK-MEL-28 melanoma
HCC-2998 colon = tested on: HCC-2998 colon
M14 melanoma = tested on: M14 melanoma
NCI-H23 lung = tested on: NCI-H23 lung
KM12 colon = tested on: KM12 colon
U251 CNS = tested on: U251 CNS
UACC-257 melanoma = tested on: UACC-257 melanoma
CAKI-1 renal = tested on: CAKI-1 renal

Cc1[nH]c2ccc([N+](=O)[O-])cc2c1CC(CC[N+](=O)[O-])[N+](=O)[O-] (stereo not drawn)
GI50 (XF 498 CNS): > 100 µM
TGI (XF 498 CNS): > 100 µM
GI50 (HCT-15 colon): > 100 µM
TGI (HCT-15 colon): > 100 µM
GI50 (DMS 273 small cell lung): > 100 µM
TGI (DMS 273 small cell lung): > 100 µM
GI50 (EKVX NSCLC): 75.8 µM
TGI (EKVX NSCLC): > 100 µM
GI50 (IGROV1 ovarian): > 100 µM
TGI (IGROV1 ovarian): > 100 µM
GI50 (A549 NSCLC): > 100 µM
TGI (A549 NSCLC): > 100 µM
GI50 (UACC-62 melanoma): 61.3 µM
TGI (UACC-62 melanoma): > 100 µM
GI50 (COLO 205 colon): > 100 µM
TGI (COLO 205 colon): > 100 µM
GI50 (HOP-92 NSCLC): 15.7 µM
TGI (HOP-92 NSCLC): > 100 µM
GI50 (LXFL 529 NSCLC): 44.2 µM
TGI (LXFL 529 NSCLC): > 100 µM
GI50 (HL-60(TB) leukemia): 54.9 µM
TGI (HL-60(TB) leukemia): > 100 µM
GI50 (SF-295 CNS): > 100 µM
TGI (SF-295 CNS): > 100 µM
GI50 (UO-31 renal): 53 µM
TGI (UO-31 renal): > 100 µM
GI50 (RXF-631 renal): > 100 µM
TGI (RXF-631 renal): > 100 µM
GI50 (SNB-78 CNS): 36 µM
TGI (SNB-78 CNS): > 100 µM
GI50 (A498 renal): > 100 µM
TGI (A498 renal): > 100 µM
GI50 (M19-MEL melanoma): > 100 µM
TGI (M19-MEL melanoma): > 100 µM
GI50 (SNB-75 CNS): 61.3 µM
TGI (SNB-75 CNS): > 100 µM
GI50 (RXF 393 renal): 38.4 µM
TGI (RXF 393 renal): > 100 µM
GI50 (OVCAR-8 ovarian): 63.1 µM
TGI (OVCAR-8 ovarian): > 100 µM
GI50 (KM20L2 colon): > 100 µM
TGI (KM20L2 colon): > 100 µM
GI50 (SF-268 CNS): > 100 µM
TGI (SF-268 CNS): > 100 µM
GI50 (SK-MEL-2 melanoma): > 100 µM
TGI (SK-MEL-2 melanoma): > 100 µM
GI50 (HT29 colon): > 100 µM
TGI (HT29 colon): > 100 µM
GI50 (SW-620 colon): > 100 µM
TGI (SW-620 colon): > 100 µM
GI50 (CCRF-CEM leukemia): 32.4 µM
TGI (CCRF-CEM leukemia): > 100 µM
GI50 (DMS 114 small cell lung): 55 µM
TGI (DMS 114 small cell lung): > 100 µM
GI50 (MOLT-4 leukemia): 46.8 µM
TGI (MOLT-4 leukemia): > 100 µM
GI50 (SN12C renal): > 100 µM
TGI (SN12C renal): > 100 µM
GI50 (NCI-H226 lung): 37.2 µM
TGI (NCI-H226 lung): > 100 µM
GI50 (LOX IMVI melanoma): 88.4 µM
TGI (LOX IMVI melanoma): > 100 µM
GI50 (NCI-H322M lung): > 100 µM
TGI (NCI-H322M lung): > 100 µM
GI50 (SF-539 CNS): > 100 µM
TGI (SF-539 CNS): > 100 µM
GI50 (RPMI-8226 leukemia): 29.8 µM
TGI (RPMI-8226 leukemia): > 100 µM
GI50 (MALME-3M melanoma): > 100 µM
TGI (MALME-3M melanoma): > 100 µM
GI50 (NCI-H460 lung): > 100 µM
TGI (NCI-H460 lung): > 100 µM
GI50 (DLD-1 colon): 100 µM
TGI (DLD-1 colon): > 100 µM
GI50 (SNB-19 CNS): > 100 µM
TGI (SNB-19 CNS): > 100 µM
GI50 (TK-10 renal): > 100 µM
TGI (TK-10 renal): > 100 µM
GI50 (HOP-62 NSCLC): 50.4 µM
TGI (HOP-62 NSCLC): > 100 µM
GI50 (K-562 leukemia): 58.9 µM
TGI (K-562 leukemia): > 100 µM
GI50 (786-0 renal): > 100 µM
TGI (786-0 renal): > 100 µM
GI50 (SK-OV-3 ovarian): > 100 µM
TGI (SK-OV-3 ovarian): > 100 µM
GI50 (NCI-H522 lung): 43.1 µM
TGI (NCI-H522 lung): > 100 µM
GI50 (SK-MEL-5 melanoma): 91.3 µM
TGI (SK-MEL-5 melanoma): > 100 µM
GI50 (OVCAR-3 ovarian): 71.5 µM
TGI (OVCAR-3 ovarian): > 100 µM
GI50 (SK-MEL-28 melanoma): > 100 µM
TGI (SK-MEL-28 melanoma): > 100 µM
GI50 (HCC-2998 colon): > 100 µM
TGI (HCC-2998 colon): > 100 µM
GI50 (M14 melanoma): > 100 µM
TGI (M14 melanoma): > 100 µM
GI50 (NCI-H23 lung): > 100 µM
TGI (NCI-H23 lung): > 100 µM
GI50 (KM12 colon): > 100 µM
TGI (KM12 colon): > 100 µM
GI50 (U251 CNS): > 100 µM
TGI (U251 CNS): > 100 µM
GI50 (UACC-257 melanoma): > 100 µM
TGI (UACC-257 melanoma): > 100 µM
GI50 (CAKI-1 renal): > 100 µM
TGI (CAKI-1 renal): > 100 µM
